# Patent US11096909B2, “Compounds for use in the treatment of cancer” (University of Oulu, priority 2016, dated 2021)
# Protein sequences, listed by entry. Tags and fused reporters are not part of them. Lines headed by an entry give the natural chain unless they say otherwise; changes in a name come on top. Residues count along the entry.
# UniProt Q53GL7, 806-1025 limits assumed: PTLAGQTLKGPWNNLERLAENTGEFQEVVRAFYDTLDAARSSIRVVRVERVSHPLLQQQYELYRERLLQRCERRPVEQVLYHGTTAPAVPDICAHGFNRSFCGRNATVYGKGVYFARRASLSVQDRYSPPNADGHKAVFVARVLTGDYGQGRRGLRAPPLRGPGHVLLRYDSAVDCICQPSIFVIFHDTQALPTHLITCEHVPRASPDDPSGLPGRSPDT
# UniProt P09874, whole entry: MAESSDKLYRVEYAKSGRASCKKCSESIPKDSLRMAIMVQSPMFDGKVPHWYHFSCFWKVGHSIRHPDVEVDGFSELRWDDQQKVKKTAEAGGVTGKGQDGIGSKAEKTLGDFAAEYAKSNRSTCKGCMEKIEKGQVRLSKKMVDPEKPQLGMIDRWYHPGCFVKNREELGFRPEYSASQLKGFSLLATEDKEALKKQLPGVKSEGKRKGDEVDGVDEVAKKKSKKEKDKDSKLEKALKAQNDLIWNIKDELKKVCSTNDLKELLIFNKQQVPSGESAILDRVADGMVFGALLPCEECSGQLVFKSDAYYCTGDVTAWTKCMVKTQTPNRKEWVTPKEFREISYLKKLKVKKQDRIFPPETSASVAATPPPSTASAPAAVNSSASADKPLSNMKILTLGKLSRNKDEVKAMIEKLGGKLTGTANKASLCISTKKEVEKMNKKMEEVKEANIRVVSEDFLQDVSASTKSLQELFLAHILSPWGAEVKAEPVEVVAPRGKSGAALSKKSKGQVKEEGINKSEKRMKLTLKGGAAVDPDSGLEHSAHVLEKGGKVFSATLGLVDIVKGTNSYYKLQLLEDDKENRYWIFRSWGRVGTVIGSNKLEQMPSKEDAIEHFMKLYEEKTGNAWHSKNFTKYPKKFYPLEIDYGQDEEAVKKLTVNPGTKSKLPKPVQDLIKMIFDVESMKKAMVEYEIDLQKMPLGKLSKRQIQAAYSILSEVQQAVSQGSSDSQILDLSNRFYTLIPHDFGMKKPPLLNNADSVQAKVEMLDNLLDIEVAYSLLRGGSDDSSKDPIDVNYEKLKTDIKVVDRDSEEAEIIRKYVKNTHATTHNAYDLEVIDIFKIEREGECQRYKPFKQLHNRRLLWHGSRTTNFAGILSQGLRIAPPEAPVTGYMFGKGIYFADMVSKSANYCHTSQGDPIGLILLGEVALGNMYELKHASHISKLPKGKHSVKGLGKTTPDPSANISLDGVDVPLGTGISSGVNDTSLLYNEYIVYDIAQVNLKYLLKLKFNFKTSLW
# UniProt Q9UGN5: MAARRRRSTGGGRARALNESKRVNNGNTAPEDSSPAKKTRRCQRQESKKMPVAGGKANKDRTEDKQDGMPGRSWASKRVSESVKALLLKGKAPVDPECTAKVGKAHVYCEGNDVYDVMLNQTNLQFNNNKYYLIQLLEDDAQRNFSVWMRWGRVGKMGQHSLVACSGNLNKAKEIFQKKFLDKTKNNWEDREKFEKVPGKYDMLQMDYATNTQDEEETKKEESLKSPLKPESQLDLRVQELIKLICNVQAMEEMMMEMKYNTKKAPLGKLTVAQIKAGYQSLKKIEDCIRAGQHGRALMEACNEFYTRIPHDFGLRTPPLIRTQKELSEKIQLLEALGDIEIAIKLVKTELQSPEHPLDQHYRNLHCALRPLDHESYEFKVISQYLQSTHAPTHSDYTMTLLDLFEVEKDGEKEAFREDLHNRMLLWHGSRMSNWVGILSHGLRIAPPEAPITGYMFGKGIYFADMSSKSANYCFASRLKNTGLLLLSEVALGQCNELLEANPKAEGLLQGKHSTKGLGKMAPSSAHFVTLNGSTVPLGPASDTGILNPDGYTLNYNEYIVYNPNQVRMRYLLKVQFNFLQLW
# UniProt Q9H0J9: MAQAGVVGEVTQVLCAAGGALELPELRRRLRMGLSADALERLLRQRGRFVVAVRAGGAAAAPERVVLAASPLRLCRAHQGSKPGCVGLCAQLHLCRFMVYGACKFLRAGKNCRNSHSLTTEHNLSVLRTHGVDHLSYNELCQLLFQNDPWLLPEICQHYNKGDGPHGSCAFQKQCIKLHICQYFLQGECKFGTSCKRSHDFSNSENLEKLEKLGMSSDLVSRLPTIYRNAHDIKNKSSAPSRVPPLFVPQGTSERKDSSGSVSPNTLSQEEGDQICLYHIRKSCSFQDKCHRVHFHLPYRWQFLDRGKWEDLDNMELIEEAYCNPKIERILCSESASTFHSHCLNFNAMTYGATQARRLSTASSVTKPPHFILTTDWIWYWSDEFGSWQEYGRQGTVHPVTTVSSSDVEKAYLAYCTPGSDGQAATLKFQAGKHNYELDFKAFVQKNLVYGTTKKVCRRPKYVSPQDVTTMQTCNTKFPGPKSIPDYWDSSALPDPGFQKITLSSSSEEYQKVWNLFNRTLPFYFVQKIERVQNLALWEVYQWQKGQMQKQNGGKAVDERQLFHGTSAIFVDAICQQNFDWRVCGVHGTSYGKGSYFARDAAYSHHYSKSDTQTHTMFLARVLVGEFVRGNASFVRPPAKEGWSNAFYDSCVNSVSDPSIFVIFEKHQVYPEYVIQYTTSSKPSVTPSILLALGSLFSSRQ
# UniProt Q7Z2W4: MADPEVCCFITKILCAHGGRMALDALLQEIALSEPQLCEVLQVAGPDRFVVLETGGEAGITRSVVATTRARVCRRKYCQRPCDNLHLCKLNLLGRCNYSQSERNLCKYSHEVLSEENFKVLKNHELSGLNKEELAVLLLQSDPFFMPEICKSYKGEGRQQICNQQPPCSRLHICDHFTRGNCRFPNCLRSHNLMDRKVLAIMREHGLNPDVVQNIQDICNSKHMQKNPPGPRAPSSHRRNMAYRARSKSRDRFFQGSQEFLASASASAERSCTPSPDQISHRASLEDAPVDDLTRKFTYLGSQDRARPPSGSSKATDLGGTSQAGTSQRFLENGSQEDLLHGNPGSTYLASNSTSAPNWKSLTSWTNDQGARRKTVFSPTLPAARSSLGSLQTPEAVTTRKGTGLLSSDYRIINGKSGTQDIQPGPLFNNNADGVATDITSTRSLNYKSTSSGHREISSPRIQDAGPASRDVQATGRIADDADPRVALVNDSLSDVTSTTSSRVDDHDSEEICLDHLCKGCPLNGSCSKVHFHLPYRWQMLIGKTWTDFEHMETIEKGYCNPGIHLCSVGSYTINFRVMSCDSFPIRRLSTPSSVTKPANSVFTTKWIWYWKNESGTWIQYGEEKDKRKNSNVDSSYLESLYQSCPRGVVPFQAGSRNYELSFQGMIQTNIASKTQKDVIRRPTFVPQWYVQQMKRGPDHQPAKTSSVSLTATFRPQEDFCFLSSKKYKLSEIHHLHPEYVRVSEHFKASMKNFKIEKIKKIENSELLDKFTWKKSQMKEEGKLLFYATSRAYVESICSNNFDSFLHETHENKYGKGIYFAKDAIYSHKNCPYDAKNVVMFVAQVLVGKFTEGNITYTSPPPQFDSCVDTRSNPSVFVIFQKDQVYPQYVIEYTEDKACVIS
# How the values were obtained:
# [1] = test system: HeLa cells overexpressing ARTD10; experiment: Colony formation assay; format: cell-based; conditions: 10 μM compound, ARTD10 induced with doxycycline 500 ng/ml, 10 days
# Method: FIG. 3. […] The different compounds were added as indicated with a final concentration of 10 μM. These were replenished every 48 h. (b) Quantification of the colony formation results. The data represent mean values of three independent experiments performed in duplicates with standard deviations.
# The cells were grown in DMEM culture media with 10% FCS, and the plates were incubated at 37° C. with 5% CO2. After 24 h of seeding, over expression of ARTD10 was induced by adding 500 ng/ml doxycycline and the media were also supplemented with the tested compounds at 10 μM concentrations. The cells were allowed to proliferate for the next 10 days, after which they were stained with methylene blue to count the number of surviving colonies. The compounds and doxycycline were replenished every 48 h while fresh media (DMEM supplemented with 10% FCS) was added every four days.
# [2] = target: ARTD10/PARP10 (Homo sapiens, UniProt Q53GL7); conditions: 100 μM OUL35
# [3] = target: ARTD1/PARP1 (Homo sapiens, UniProt P09874); experiment: biochemical
# [4] = target: ARTD2/PARP2 (Homo sapiens, UniProt Q9UGN5); experiment: biochemical
# [5] = target: T1, ARTD7/PARP15 (Homo sapiens, UniProt Q460N3); experiment: biochemical
# T1 sequence (Q460N3 1-678): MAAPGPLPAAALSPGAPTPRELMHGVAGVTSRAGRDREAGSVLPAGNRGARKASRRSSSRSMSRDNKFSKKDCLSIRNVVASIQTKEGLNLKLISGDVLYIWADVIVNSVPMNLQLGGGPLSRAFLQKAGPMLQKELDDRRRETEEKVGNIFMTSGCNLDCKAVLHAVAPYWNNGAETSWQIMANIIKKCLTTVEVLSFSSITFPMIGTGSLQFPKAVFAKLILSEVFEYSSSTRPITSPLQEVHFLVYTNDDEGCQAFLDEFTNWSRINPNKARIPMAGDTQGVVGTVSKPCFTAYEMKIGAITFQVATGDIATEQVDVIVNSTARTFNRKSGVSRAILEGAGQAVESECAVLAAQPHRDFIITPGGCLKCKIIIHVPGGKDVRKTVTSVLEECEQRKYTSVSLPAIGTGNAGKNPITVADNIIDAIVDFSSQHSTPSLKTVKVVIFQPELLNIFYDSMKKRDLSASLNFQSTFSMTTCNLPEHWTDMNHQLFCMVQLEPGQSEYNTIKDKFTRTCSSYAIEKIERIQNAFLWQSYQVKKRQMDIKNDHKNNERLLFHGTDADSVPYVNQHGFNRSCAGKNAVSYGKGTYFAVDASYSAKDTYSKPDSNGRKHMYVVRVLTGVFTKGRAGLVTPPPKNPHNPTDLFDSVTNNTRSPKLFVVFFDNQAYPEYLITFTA
# [6] = target: T2, ARTD5/PARP5a (Homo sapiens, UniProt O95271); experiment: biochemical; conditions: read-out: ΔTm (DSF), ° C. ± STDEV
# T2 sequence (O95271 1-1327): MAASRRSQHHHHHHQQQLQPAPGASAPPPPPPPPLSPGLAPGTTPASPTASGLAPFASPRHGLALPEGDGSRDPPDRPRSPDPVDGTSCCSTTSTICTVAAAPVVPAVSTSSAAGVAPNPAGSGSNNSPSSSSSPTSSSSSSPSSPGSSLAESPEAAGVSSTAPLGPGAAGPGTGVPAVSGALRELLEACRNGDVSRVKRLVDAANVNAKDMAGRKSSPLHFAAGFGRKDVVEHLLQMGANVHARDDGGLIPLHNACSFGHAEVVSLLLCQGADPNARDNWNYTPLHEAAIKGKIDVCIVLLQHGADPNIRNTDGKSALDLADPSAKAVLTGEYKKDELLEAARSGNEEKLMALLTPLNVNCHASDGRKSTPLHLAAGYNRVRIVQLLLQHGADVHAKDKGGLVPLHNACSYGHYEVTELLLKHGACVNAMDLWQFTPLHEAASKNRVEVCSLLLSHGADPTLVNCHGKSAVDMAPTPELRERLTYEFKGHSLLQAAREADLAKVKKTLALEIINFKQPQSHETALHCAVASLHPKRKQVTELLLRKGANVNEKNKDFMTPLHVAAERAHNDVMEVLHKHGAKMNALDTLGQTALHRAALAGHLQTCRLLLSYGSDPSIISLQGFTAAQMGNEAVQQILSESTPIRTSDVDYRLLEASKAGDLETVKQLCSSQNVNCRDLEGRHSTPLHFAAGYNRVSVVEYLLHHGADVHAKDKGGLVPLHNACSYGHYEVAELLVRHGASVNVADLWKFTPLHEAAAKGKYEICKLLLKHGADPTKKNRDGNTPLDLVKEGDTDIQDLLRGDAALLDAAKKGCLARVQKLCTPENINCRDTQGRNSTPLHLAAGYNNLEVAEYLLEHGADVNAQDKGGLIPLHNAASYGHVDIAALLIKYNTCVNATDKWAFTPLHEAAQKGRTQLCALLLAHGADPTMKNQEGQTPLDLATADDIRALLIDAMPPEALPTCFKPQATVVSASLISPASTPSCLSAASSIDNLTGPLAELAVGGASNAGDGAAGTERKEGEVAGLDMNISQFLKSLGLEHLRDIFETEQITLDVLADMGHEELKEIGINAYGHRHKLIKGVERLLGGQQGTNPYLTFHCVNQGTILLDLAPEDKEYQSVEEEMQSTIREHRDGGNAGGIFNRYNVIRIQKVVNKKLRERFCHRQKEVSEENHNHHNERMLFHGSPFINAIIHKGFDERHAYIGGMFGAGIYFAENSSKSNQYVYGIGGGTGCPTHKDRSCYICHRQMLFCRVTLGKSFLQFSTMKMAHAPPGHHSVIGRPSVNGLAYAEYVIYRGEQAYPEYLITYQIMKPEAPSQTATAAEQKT
# [7] = target: T3, ARTD6/PARP5b (Homo sapiens, UniProt Q9H2K2); experiment: biochemical; conditions: read-out: ΔTm (DSF), ° C. ± STDEV
# T3 sequence (Q9H2K2 1-1166): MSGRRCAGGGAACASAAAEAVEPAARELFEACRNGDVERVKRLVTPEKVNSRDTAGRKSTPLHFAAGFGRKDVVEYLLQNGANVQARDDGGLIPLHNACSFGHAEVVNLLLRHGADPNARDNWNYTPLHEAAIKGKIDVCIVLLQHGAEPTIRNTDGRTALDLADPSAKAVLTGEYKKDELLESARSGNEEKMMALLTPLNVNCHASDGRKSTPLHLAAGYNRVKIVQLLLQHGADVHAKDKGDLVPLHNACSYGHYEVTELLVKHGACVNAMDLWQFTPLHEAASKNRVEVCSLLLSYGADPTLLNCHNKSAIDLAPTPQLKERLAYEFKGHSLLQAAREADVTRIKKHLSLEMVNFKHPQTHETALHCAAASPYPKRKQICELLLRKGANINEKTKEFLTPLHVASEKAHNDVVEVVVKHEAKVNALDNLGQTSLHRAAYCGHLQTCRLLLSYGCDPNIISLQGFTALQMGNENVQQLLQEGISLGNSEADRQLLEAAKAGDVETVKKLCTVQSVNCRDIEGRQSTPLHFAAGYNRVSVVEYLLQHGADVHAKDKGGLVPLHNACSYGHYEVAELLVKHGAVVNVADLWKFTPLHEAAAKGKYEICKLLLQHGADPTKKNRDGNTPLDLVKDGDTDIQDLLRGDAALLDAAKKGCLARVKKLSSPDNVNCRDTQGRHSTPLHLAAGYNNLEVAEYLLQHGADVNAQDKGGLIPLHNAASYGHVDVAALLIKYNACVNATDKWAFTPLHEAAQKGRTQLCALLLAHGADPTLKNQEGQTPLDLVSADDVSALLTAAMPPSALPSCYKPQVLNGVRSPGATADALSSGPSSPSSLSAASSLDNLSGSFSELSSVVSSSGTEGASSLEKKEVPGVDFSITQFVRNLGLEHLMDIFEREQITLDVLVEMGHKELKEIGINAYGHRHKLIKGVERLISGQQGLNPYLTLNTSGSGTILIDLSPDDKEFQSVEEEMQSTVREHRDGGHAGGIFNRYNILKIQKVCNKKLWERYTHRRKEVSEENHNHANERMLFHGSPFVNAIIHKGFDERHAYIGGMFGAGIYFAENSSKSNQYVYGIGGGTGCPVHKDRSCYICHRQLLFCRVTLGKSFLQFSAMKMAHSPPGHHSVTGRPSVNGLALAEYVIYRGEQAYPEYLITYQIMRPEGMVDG
# [8] = target: ARTD12/PARP12 (Homo sapiens, UniProt Q9H0J9); experiment: biochemical; conditions: read-out: ΔTm (DSF), ° C. ± STDEV
# [9] = target: ARTD13/PARP13 (Homo sapiens, UniProt Q7Z2W4); experiment: biochemical; conditions: read-out: ΔTm (DSF), ° C. ± STDEV
smiles,measurement,setting,value
"NC(=O)c1ccc(Oc2ccc(C(N)=O)cc2)cc1 [OUL35, 4,4′-oxydibenzamide]",rescue of cell proliferation / colony formation,[1],complete rescue of cell proliferation; also recorded: efficiently rescued cells overexpressing ARTD10
same,stabilization of catalytic domain (DSF),[2],stabilized the catalytic domains
same,IC50,[3],> 100 µM
same,IC50,[4],> 100 µM
same,inhibition at 20 µM,[5],< 50%
same,ΔTm at 100 µM,[6],0.45 ± 0.01 °C
same,ΔTm at 100 µM,[7],0.15 ± 0.12 °C
same,ΔTm at 100 µM,[8],0.87 ± 0.42 °C
same,ΔTm at 100 µM,[9],-0.21 ± 0.04 °C

# Entries after “also recorded” stand apart in the source; their conditions may differ.
